From US20240239801A1, “PYRIMIDO[5,4,D]PYRIMIDINE COMPOUNDS, COMPOSITIONS COMPRISING THEM AND USES THEREOF” (Université de Montréal, priority 2021, published 2024)

The chains behind the UniProt entries cited, without tags or fusion partners.
UniProt P15056, whole entry: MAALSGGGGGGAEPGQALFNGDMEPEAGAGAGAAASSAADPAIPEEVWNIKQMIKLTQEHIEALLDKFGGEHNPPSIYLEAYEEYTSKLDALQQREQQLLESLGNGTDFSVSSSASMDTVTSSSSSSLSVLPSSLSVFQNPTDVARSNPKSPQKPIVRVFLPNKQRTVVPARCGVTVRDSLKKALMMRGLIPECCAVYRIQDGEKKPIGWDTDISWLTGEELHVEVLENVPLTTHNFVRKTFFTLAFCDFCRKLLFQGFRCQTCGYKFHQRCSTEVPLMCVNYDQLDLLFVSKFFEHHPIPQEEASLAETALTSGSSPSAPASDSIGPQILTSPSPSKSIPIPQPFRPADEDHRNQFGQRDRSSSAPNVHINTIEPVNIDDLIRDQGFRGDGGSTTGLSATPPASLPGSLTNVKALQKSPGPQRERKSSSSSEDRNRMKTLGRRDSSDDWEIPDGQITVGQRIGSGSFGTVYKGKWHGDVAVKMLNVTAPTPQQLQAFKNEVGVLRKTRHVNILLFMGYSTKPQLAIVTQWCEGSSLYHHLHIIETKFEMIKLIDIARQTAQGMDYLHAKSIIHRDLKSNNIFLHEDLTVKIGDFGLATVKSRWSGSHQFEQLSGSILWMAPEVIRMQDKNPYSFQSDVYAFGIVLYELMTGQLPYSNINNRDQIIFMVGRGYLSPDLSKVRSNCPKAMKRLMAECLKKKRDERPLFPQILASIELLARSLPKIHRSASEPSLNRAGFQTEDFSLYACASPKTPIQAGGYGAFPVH
UniProt P04049, whole entry: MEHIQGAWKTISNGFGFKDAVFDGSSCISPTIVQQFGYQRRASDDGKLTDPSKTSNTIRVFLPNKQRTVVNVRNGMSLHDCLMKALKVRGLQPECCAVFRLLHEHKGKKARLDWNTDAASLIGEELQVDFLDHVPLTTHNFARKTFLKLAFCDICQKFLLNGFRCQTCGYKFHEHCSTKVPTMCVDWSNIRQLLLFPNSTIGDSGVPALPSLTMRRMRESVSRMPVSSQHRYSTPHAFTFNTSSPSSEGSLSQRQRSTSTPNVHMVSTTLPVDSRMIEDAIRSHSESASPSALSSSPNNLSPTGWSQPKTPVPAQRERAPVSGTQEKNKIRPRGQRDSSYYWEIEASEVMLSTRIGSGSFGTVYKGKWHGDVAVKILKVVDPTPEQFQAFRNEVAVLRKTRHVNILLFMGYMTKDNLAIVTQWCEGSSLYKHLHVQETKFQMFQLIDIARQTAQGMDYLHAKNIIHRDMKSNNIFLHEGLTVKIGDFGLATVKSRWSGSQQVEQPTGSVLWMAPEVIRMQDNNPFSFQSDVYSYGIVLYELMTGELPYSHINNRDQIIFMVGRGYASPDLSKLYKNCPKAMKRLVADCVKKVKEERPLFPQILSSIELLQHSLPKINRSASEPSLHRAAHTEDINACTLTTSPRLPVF

Key:
[1] = target: BRAF (Homo sapiens, UniProt P15056); assay: BRAF kinase activity assay (ADP-Glo); settings: read-out: Kinase IC50 BRAF
Description: (§1) Compound preparation: solid samples of each substances in 1dram vials were suspended in DMSO (Fisher Scientific) at a stock concentration of 20 mM. Stocks were kept at −20° C. and protected from light. If solubility of the compound at 20 mM appeared to be an issue, the initial concentration of the DMSO stock was changed to 10 mM or 5 mM.
(§2) In vitro enzymatic reactions were used for evaluating compounds intrinsic activity against BRAF, CRAF and ARAF. For BRAF and CRAF, 0.375 nM of purified GST-tagged kinases (cat #B4062-10UG and cat #R1656-10UG respectively from Millipore Sigma) were incubated with 75 nM of kinase-dead MEK1 substrate (cat #40075; BPS Bioscience) in the presence of 10 μM of Ultrapure ATP (cat #V9102; Promega; part V915A) with and without the test compound in a buffer containing 50 mM HEPES pH 7.5, 10 mM MgCl2, 1 mM EDTA, 0.01% Brij-35 and 2 mM DTT. Separate reactions were performed with the MEK1 substrate and ATP as a blank control. ARAF, kinase reactions were rigorously the same with the exception that kinase concentration was raised to 3.75 nM (cat #1768-0000-1; Reaction Biology).
(§3) For compound treatment, 5 μL/well of test substance solution are placed in a 384-well proxyplate (Perkin Elmer) and mixed with 2× concentrated kinase reactions. The dilution series is selected so that nine concentrations cover a range from 100 nM to 0.01 nM. […] The final concentration of DMSO in the assay is set at 0.05%.
(§4) BRAF and CRAF kinase reactions were carried out for a total of 2 hours at 30° C. and then stopped by ½ dilution in ADP-Glo Reagent (cat #V9102; Promega; part V912C). Reactions were then incubated for 1 h at room temperature before addition of one volume of Kinase Detection Reagent (cat #V9102; Promega; part V917A). Plates were then equilibrated at room temperature for 30 minutes before detection of luminescence on a Synergy Neo2 plate reader (Biotek). The effect of each compound dilution on BRAF and CRAF kinase activity was expressed as % inhibition and calculated as follows. First, the internal 100% inhibition control (average of luminescence in kinase reactions comprising kinase dead MEK1 substrate alone) was subtracted from each data point. The average of DMSO (vehicle) controls (set as 0% inhibition) was established and used to calculate % inhibition:
(§5) IC50 values were obtained by plotting the kinase inhibition values and fitting the dose-activity curves using a log(agonist) versus response−variable slope (four parameters) function using either GraphPadPrism (V7.0) or Dotmatics Screening Ultra platform. Standards included in the ARAF kinase assay were Belvarafenib (MedChem Express cat #HY-109080; CAS #1446113-23-0), LXH254 (MedChem Express cat #HY-112089; CAS #1800398-38-2) and BGB283 (cat #HY-18957; CAS #1446090-79-4).

[2] = target: CRAF (Homo sapiens, UniProt P04049); assay: CRAF kinase activity assay (ADP-Glo); settings: read-out: Kinase IC50 CRAF
Description: as §1, §2, §3, §4, §5

[3] = system: HCT116 pERK; assay: Phospho-ERK inhibition, AlphaLISA SureFire Ultra p-ERK 1/2; settings: for HCT116 (Ymin %): lowest value of the pERK IC50 curve; for IC50: read-out: HCT116 PERK IC50; for HCT116 pERK % Ymin (lowest value of the IC50 curve): value in brackets, Ymin above −20% = minimal or no paradoxical induction
Description: All cancer cell lines (A375, A101D, A2058, RKO, HT29 SK-MEL 30, IPC298, HepG2, HCT-116, Lovo, SW620, SW480, NCI-H358, NCI-H2122, Calu-6, NCIH2087, NCIH1755, NCIH1666 and Mewo) were obtained from ATCC and cultured in RPMI-1640 medium (Gibco) supplemented with 5% heat inactivated fetal bovine serum (FBS, Wisent) at 37° C. under 5% CO2. Cells were maintained in T175 flasks (Greiner). They were passaged by removing the culture medium, washing once in 10 mL of room temperature Phosphate Buffered Saline (PBS; Wisent) and incubating at 37° C. with 2 mL of 0.05% Trypsin (Thermo-Fisher). Trypsin was then inactivated by adding complete growth medium and the cells were then replated in a T175 culture dish at the appropriate dilution. All cell lines were routinely tested for mycoplasma contamination. Tissue type and mutational status of each cell line can be found in Table B.
AlphaLISA® SureFire® Ultra™ p-ERK ½ (Thr202/Tyr204) analysis was conducted on cells plated in 100 μL of complete RPMI-1640 growth medium in 96-well flat-bottomed transparent dishes (Costar) at a density indicated in Table C. Cells were maintained overnight at 37° C. under 5% CO2 before treatment with compounds' dilution series for one hour. The cell density in cells/cm^2 corresponds to cell number divided by the area of one well of a 96-well plate ([…]).
In a dilution series 100 μL/well of test substance dilution prepared in complete RPMI-1640 growth media was added to the cells. The dilution series is selected so that ten concentrations cover a range from 30 μM or 10 μM to 0.33 nM. If necessary, the initial concentration of 10 μM is increased to 100 μM or lowered to 1 μM (as in the case of A375 and NCIH1666 cells, which are generally more sensitive to the compounds) and further dilution is carried out accordingly. The final concentration of DMSO in the assay is set at 0.5%.
After treatment, media was removed, and cells were lysed in 50 μL of 1× AlphaScreen Ultra Lysis Buffer (Perkin Elmer). The AlphaLISA® SureFire® Ultra™ p-ERK ½ (Thr202/Tyr2O4) (PerkinElmer) reactions were performed with 5 μL of cell lysate according to the manufacturer's specifications in 384-well proxyplates (Perkin Elmer) followed by overnight incubation of the reactions at room temperature in a humidified chamber. After completion of the reactions, the signals were recorded on an EnVision plate reader (Perkin Elmer) using built in AlphaLISA® settings.
The effect of each compound dilution on the pERK signal was expressed in % inhibition and calculated as follows. An internal 100% inhibition control (1 μM trametinib, cat. No. HY-10999; MedChem Express; CAS No. 871700-17-3) was included in each plate and used as a measure of pERK background. First, the value obtained for trametinib was subtracted from each data point. The average of DMSO (vehicle) controls (set as 0% inhibition) was established and used to calculate % inhibition:
The ability of each compound to inhibit pERK signal was expressed as an IC50 value obtained by plotting the inhibition values for each data point of a dilution series and fitting the obtained curves using a log(agonist) versus response−variable slope (four parameters) function using GraphPadPrism (V7.0).
When present, paradoxical pERK induction is inferred from the negative % inhibition values observed in the pERK IC50 curves of a compound.

## CCC1(O)CCN(c2cccc3c2ncn3-c2ncc3ncnc(Nc4c(F)ccc(NS(=O)(=O)c5scc(Cl)c5Cl)c4F)c3n2)CC1
[1]; Table 3
  IC50: 1 to 10 nM
[2]; Table 3
  IC50: < 10 nM
[3]; Table 3
  HCT116 (Ymin %): 5%
[3]; Table 3, 1 h treatment
  IC50: < 500 nM

## O=S(=O)(Nc1cc(F)c(F)c(Nc2ncnc3cnc(-n4cnc5c(N6CCC[C@H](O)C6)cccc54)nc23)c1F)c1cccc(Cl)c1Cl
[1]; BRAF biochemical kinase assay
  IC50: 1 to 10 nM
[2]; CRAF biochemical kinase assay
  IC50: < 10 nM
[3]; HCT116 cells
  HCT116 pERK % Ymin (lowest value of the IC50 curve): −14%
[3]; HCT116 cells, pERK
  IC50: < 500 nM

## Cc1c(F)cccc1S(=O)(=O)Nc1ccc(F)c(Nc2ncnc3cnc(-n4cc(S(=O)(=O)N(C)CCN(C)C)c5ccccc54)nc23)c1F
[1]; Table 3
  IC50: < 1 nM
[2]; Table 3
  IC50: < 10 nM
[3]; Table 3
  HCT116 (Ymin %): −3%
[3]; Table 3, 1 h treatment
  IC50: < 500 nM

## CN(C)CCN(C)S(=O)(=O)c1cn(-c2ncc3ncnc(Nc4c(F)ccc(NS(=O)(=O)c5cccc(Cl)c5Cl)c4F)c3n2)c2ccccc12
[1]; Table 3
  IC50: < 1 nM
[2]; Table 3
  IC50: < 10 nM
[3]; Table 3
  HCT116 (Ymin %): −4%
[3]; Table 3, 1 h treatment
  IC50: < 500 nM

## O=S(=O)(Nc1ccc(F)c(Nc2ncnc3cnc(-n4cnc5c(F)cccc54)nc23)c1F)c1cccc(Cl)c1Cl
[1]; Table 3
  IC50: 1 to 10 nM
[2]; Table 3
  IC50: < 10 nM
[3]; Table 3
  HCT116 (Ymin %): 3%
[3]; Table 3, 1 h treatment
  IC50: 1000 to 10000 nM

## Cc1c(Cl)cccc1S(=O)(=O)Nc1ccc(F)c(Nc2ncnc3cnc(-n4cc(S(=O)(=O)N(C)CCN(C)C)c5ccccc54)nc23)c1F
[2]; Table 3
  IC50: < 10 nM
[3]; Table 3
  HCT116 (Ymin %): −5%
[3]; Table 3, 1 h treatment
  IC50: 500 to 1000 nM

## CCC1(O)CCN(c2cccc3c2ncn3-c2ncc3ncnc(Nc4c(F)c(F)cc(NS(=O)(=O)c5cccc(Cl)c5Cl)c4F)c3n2)CC1
[1]; BRAF biochemical kinase assay
  IC50: 1 to 10 nM
[2]; CRAF biochemical kinase assay
  IC50: < 10 nM
[3]; HCT116 cells
  HCT116 pERK % Ymin (lowest value of the IC50 curve): −9%
[3]; HCT116 cells, pERK
  IC50: < 500 nM

## COc1ccc(S(=O)(=O)Nc2ccc(F)c(Nc3ncnc4cnc(-n5cc(S(=O)(=O)N(C)CCN(C)C)c6ccccc65)nc34)c2F)c(C)c1F
[1]; Table 3
  IC50: 1 to 10 nM
[2]; Table 3
  IC50: 10 to 50 nM
[3]; Table 3
  HCT116 (Ymin %): −4%
[3]; Table 3, 1 h treatment
  IC50: < 500 nM

Where two headings read alike, the source gives them in different places.
